Chains of the proteins cited; added tags and fusions are not shown. Residues count along the entry.
UniProt P22888, 27-699: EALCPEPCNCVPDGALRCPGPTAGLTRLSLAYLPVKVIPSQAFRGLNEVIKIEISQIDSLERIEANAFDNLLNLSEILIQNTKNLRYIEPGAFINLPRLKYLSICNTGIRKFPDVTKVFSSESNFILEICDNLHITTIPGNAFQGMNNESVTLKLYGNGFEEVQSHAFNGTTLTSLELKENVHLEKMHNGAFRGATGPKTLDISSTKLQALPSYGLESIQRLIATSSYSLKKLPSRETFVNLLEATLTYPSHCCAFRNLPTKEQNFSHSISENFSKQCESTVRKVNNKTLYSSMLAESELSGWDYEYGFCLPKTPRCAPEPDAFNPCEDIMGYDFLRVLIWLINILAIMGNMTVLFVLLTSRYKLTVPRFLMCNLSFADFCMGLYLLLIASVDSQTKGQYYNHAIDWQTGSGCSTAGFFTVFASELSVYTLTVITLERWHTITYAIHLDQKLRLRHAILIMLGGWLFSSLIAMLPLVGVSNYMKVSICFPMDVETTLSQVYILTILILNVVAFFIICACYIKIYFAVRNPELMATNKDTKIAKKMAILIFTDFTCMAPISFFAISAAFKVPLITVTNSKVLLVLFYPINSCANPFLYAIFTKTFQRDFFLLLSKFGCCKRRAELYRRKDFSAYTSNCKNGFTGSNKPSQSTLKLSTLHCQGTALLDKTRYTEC

According to patent US20090203716A1, “Pyrimidine low molecular weight ligands for modulating hormone receptors” (The Government of the United States of America as …, priority 2006, published 2009):

Biological target: T1, human LHCG receptor (Homo sapiens, UniProt P22888)
T1 construct: expressed in transfected cells
Test: intracellular cAMP accumulation, agonism at LHCGR stably expressed in HEK EM 293 cells
Format: cell-based
Protocol: With reference to Table 1, exemplary disclosed compounds were evaluated against human TSH receptor and human LHCG receptor that were stably expressed in HEK 293 EM cells as previously described by Libert et al. (Biochem. Biophys. Res. Commun. 1989, 165, 1250-1255); and by Schulz et al. (Mol. Endocrinol. 1999, 13, 181-190). Cell surface expression of TSH receptor and LHCG receptor were determined via FACS analysis (Kleinau, G.; Jäschke, H.; Neumann, S.; Lättig, S.; Paschke, R.; Krause, G. J. Biol. Chem. 2004, 279, 51590-51600). Agonism of compounds 3-20 were determined via measurement of intracellular cyclic AMP accumulation. […]
Cells were cultured for 48 h in 24-well plates before incubation for 1 h in serum-free DMEM containing 1 mM 3-isobutyl-1-methylxanthine (IBMX) (SIGMA) and bovine TSH (1.8 μM) (SIGMA) or human LH (1000 ng/ml) (Dr. A. Parlow, NIDDK National Hormone and Pituitary Program) or compounds 3-19 (0-100 μM) in a humidified 5% CO2 incubator. […] The cAMP content of the cell lysate was determined using the manufacturer's protocol. The efficacy of receptor activation by small molecule modulators is expressed as % of maximum response of LHCG receptor or TSH receptor to LH or TSH, respectively. […]
Transiently transfected cells were cultured for 48 hours before the cAMP assay. […] Data were analyzed using GraphPad Prism 4 for Windows. […]

| EC50 (cAMP, read-out: EC50 concentration of native ligand LH) | Compound | % Max. Resp. @ LHCGR in μM (% of maximum response of LHCGR to LH (1000 ng/ml)) |
| --- | --- | --- |
|  | CSc1nc(-c2cccc(F)c2)c2c(N)c(C(=O)NC(C)(C)C)sc2n1 [Compound 18, N-tert-butyl-5-amino-4-(3-fluorophenyl)-2-(methylthio)thieno[2,3-d]pyrimidine-6-carboxamide] | 51.1 ± 5.2% |
| 0.34 nM | LH: luteinizing hormone, native ligand of LHCGR (human LH) |  |
